Results published in patent US11149018B2, “Substituted N-arylethyl-2-aminoquinoline-4-carboxamides and use thereof” (Bayer Aktiengesellschaft, priority 2017, dated 2021).

By UniProt entry, the sequences of proteins in these tests, tags left out.
UniProt P43088, whole entry: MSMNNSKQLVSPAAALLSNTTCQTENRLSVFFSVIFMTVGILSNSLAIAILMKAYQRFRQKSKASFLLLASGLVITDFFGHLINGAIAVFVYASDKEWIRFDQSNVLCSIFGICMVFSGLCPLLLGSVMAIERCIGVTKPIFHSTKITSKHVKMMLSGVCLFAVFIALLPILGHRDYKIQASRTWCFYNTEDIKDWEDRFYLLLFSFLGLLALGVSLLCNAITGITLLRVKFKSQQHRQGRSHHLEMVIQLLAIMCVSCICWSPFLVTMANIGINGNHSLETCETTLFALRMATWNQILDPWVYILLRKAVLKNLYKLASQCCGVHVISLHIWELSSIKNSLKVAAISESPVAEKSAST

Target: FP receptor (Homo sapiens (Human), UniProt P43088)
Test: In vitro test of inhibition of human FP receptor activity (PGF2α-induced calcium flux in FP-expressing CHEM1 cells)
Type: cell-based
Details: read-out: FP receptor activity IC50, PGF2α 2 nM, some mean values of multiple determinations

`[2H]C1([2H])N(c2nc3ccc(Br)cc3c(C(=O)NCC(CCC(=O)O)c3c(F)ccc(F)c3Cl)c2C)C([2H])([2H])C([2H])([2H])C1([2H])[2H]` (single isomer, unassigned) showed an IC50 of 1.9 nM.
